Experimental data taken from publication PMC12102759 (Protein Science : A Publication of the Protein Society, 2025).

system: MDM2 SWIB; type: binding, human; settings: library DMS-BM; bait MDM2 SWIB; prey TP53; peptide QETFSDLWKLLPENNV; columns = wild-type residues Q1-N15, rows = amino acid at that position

First: QETFSDLWKLLPENNV K9F (QETFSDLWFLLPENNV)
Second: QETFSDLWKLLPENNV K9G (QETFSDLWGLLPENNV)
The “DMS PSSM value (position-specific score of the amino acid at the position; each column sums to 1)” value (from here on “DMS PSSM value”) of the first is lower: 0.01568 for the first, 0.02788 for the second.

First: QETFSDLWKLLPENNV K9H (QETFSDLWHLLPENNV)
Second: QETFSDLWKLLPENNV K9I (QETFSDLWILLPENNV)
The “DMS PSSM value” value of the first is lower: 0.0169 for the first, 0.03231 for the second.

Compared with QETFSDLWKLLPENNV K9K, QETFSDLWKLLPENNV K9L (QETFSDLWLLLPENNV) is higher in “DMS PSSM value” value: 0.0477 for the first, 0.227 for the second.

Going from QETFSDLWKLLPENNV K9M (QETFSDLWMLLPENNV) to QETFSDLWKLLPENNV K9N (QETFSDLWNLLPENNV), the “DMS PSSM value” value falls from 0.1419 to 0.02398.

First: QETFSDLWKLLPENNV K9P (QETFSDLWPLLPENNV)
Second: QETFSDLWKLLPENNV K9Q (QETFSDLWQLLPENNV)
The “DMS PSSM value” value of the first is lower: 0 for the first, 0.01819 for the second.

First: QETFSDLWKLLPENNV K9R (QETFSDLWRLLPENNV)
Second: QETFSDLWKLLPENNV K9S (QETFSDLWSLLPENNV)
The “DMS PSSM value” value of the first is lower: 0.02163 for the first, 0.09136 for the second.

Compared with QETFSDLWKLLPENNV K9T (QETFSDLWTLLPENNV), QETFSDLWKLLPENNV K9V (QETFSDLWVLLPENNV) is lower in “DMS PSSM value” value: 0.0447 for the first, 0.04267 for the second.

Going from QETFSDLWKLLPENNV K9W (QETFSDLWWLLPENNV) to QETFSDLWKLLPENNV K9Y (QETFSDLWYLLPENNV), the “DMS PSSM value” value rises from 0.009906 to 0.02849.

QETFSDLWKLLPENNV L7A (QETFSDAWKLLPENNV) and QETFSDLWKLLPENNV L7D (QETFSDDWKLLPENNV) are the same in “DMS PSSM value” value: 0 for the first, 0 for the second.

Compared with QETFSDLWKLLPENNV L7E (QETFSDEWKLLPENNV), QETFSDLWKLLPENNV L7F (QETFSDFWKLLPENNV) is higher in “DMS PSSM value” value: 0 for the first, 0.117 for the second.

Compared with QETFSDLWKLLPENNV L7G (QETFSDGWKLLPENNV), QETFSDLWKLLPENNV L7H (QETFSDHWKLLPENNV) is higher in “DMS PSSM value” value: 0 for the first, 0.176 for the second.

Going from QETFSDLWKLLPENNV L7I (QETFSDIWKLLPENNV) to QETFSDLWKLLPENNV L7K (QETFSDKWKLLPENNV), the “DMS PSSM value” value falls from 0.01169 to 0.

Compared with QETFSDLWKLLPENNV L7L, QETFSDLWKLLPENNV L7M (QETFSDMWKLLPENNV) is lower in “DMS PSSM value” value: 0.1836 for the first, 0.1616 for the second.

QETFSDLWKLLPENNV L7N (QETFSDNWKLLPENNV) and QETFSDLWKLLPENNV L7P (QETFSDPWKLLPENNV) are the same in “DMS PSSM value” value: 0 for the first, 0 for the second.

Compared with QETFSDLWKLLPENNV L7Q (QETFSDQWKLLPENNV), QETFSDLWKLLPENNV L7R (QETFSDRWKLLPENNV) is lower in “DMS PSSM value” value: 0.02763 for the first, 0 for the second.

QETFSDLWKLLPENNV L7S (QETFSDSWKLLPENNV) and QETFSDLWKLLPENNV L7T (QETFSDTWKLLPENNV) are the same in “DMS PSSM value” value: 0 for the first, 0 for the second.

Compared with QETFSDLWKLLPENNV L7V (QETFSDVWKLLPENNV), QETFSDLWKLLPENNV L7W (QETFSDWWKLLPENNV) is higher in “DMS PSSM value” value: 0.05714 for the first, 0.06517 for the second.

Compared with QETFSDLWKLLPENNV L7Y (QETFSDYWKLLPENNV), “QETFSDLWKLLPENNV L10A (QETFSDLWKALPENNV)” is lower in “DMS PSSM value” value: 0.2002 for the first, 0.1598 for the second.

First: QETFSDLWKLLPENNV L10D (QETFSDLWKDLPENNV)
Second: QETFSDLWKLLPENNV L10E (QETFSDLWKELPENNV)
The “DMS PSSM value” value of the first is lower: 0 for the first, 0.01414 for the second.

First: QETFSDLWKLLPENNV L10F (QETFSDLWKFLPENNV)
Second: QETFSDLWKLLPENNV L10G (QETFSDLWKGLPENNV)
The “DMS PSSM value” value of the first is lower: 0.00306 for the first, 0.01437 for the second.

First: QETFSDLWKLLPENNV L10H (QETFSDLWKHLPENNV)
Second: QETFSDLWKLLPENNV L10I (QETFSDLWKILPENNV)
The “DMS PSSM value” value of the first is higher: 0.01093 for the first, 0 for the second.

Compared with “QETFSDLWKLLPENNV L10K (QETFSDLWKKLPENNV)”, QETFSDLWKLLPENNV L10L is higher in “DMS PSSM value” value: 0.05571 for the first, 0.1534 for the second.

Compared with “QETFSDLWKLLPENNV L10M (QETFSDLWKMLPENNV)”, “QETFSDLWKLLPENNV L10N (QETFSDLWKNLPENNV)” is lower in “DMS PSSM value” value: 0.2314 for the first, 0 for the second.

Going from “QETFSDLWKLLPENNV L10P (QETFSDLWKPLPENNV)” to “QETFSDLWKLLPENNV L10Q (QETFSDLWKQLPENNV)”, the “DMS PSSM value” value rises from 0 to 0.2238.

First: QETFSDLWKLLPENNV L10R (QETFSDLWKRLPENNV)
Second: QETFSDLWKLLPENNV L10S (QETFSDLWKSLPENNV)
The “DMS PSSM value” value of the first is lower: 0.004052 for the first, 0.09176 for the second.

First: QETFSDLWKLLPENNV L10T (QETFSDLWKTLPENNV)
Second: QETFSDLWKLLPENNV L10V (QETFSDLWKVLPENNV)
The “DMS PSSM value” value of the first is higher: 0.01847 for the first, 0.003769 for the second.

Compared with “QETFSDLWKLLPENNV L10W (QETFSDLWKWLPENNV)”, “QETFSDLWKLLPENNV L10Y (QETFSDLWKYLPENNV)” is higher in “DMS PSSM value” value: 0 for the first, 0.01536 for the second.

“QETFSDLWKLLPENNV L11A (QETFSDLWKLAPENNV)” and “QETFSDLWKLLPENNV L11D (QETFSDLWKLDPENNV)” are the same in “DMS PSSM value” value: 0 for the first, 0 for the second.

Compared with “QETFSDLWKLLPENNV L11E (QETFSDLWKLEPENNV)”, “QETFSDLWKLLPENNV L11F (QETFSDLWKLFPENNV)” is lower in “DMS PSSM value” value: 0.01245 for the first, 0.004459 for the second.

“QETFSDLWKLLPENNV L11G (QETFSDLWKLGPENNV)” and “QETFSDLWKLLPENNV L11H (QETFSDLWKLHPENNV)” are the same in “DMS PSSM value” value: 0 for the first, 0 for the second.

Going from “QETFSDLWKLLPENNV L11I (QETFSDLWKLIPENNV)” to “QETFSDLWKLLPENNV L11K (QETFSDLWKLKPENNV)”, the “DMS PSSM value” value falls from 0.7009 to 0.

Compared with QETFSDLWKLLPENNV L11L, “QETFSDLWKLLPENNV L11M (QETFSDLWKLMPENNV)” is lower in “DMS PSSM value” value: 0.1688 for the first, 0.01307 for the second.

“QETFSDLWKLLPENNV L11N (QETFSDLWKLNPENNV)” and “QETFSDLWKLLPENNV L11P (QETFSDLWKLPPENNV)” are the same in “DMS PSSM value” value: 0 for the first, 0 for the second.

“QETFSDLWKLLPENNV L11Q (QETFSDLWKLQPENNV)” and “QETFSDLWKLLPENNV L11R (QETFSDLWKLRPENNV)” are the same in “DMS PSSM value” value: 0 for the first, 0 for the second.

Compared with “QETFSDLWKLLPENNV L11S (QETFSDLWKLSPENNV)”, “QETFSDLWKLLPENNV L11T (QETFSDLWKLTPENNV)” is lower in “DMS PSSM value” value: 0.003114 for the first, 0 for the second.

Going from “QETFSDLWKLLPENNV L11V (QETFSDLWKLVPENNV)” to “QETFSDLWKLLPENNV L11W (QETFSDLWKLWPENNV)”, the “DMS PSSM value” value rises from 0.0406 to 0.05662.

Going from “QETFSDLWKLLPENNV L11Y (QETFSDLWKLYPENNV)” to “QETFSDLWKLLPENNV N14A (QETFSDLWKLLPEANV)”, the “DMS PSSM value” value rises from 0 to 0.09053.

First: QETFSDLWKLLPENNV N14D (QETFSDLWKLLPEDNV)
Second: QETFSDLWKLLPENNV N14E (QETFSDLWKLLPEENV)
The “DMS PSSM value” value of the first is higher: 0.005634 for the first, 0.004064 for the second.

First: QETFSDLWKLLPENNV N14F (QETFSDLWKLLPEFNV)
Second: QETFSDLWKLLPENNV N14G (QETFSDLWKLLPEGNV)
The “DMS PSSM value” value of the first is lower: 0.002311 for the first, 0.05312 for the second.

Compared with “QETFSDLWKLLPENNV N14H (QETFSDLWKLLPEHNV)”, “QETFSDLWKLLPENNV N14I (QETFSDLWKLLPEINV)” is lower in “DMS PSSM value” value: 0.03207 for the first, 0.002379 for the second.

“QETFSDLWKLLPENNV N14K (QETFSDLWKLLPEKNV)” was tested, and the “DMS PSSM value” value was 0.004234.
